Sequences of proteins named here, by UniProt entry; tags and fusion partners are left off. A change or cut given only in a name is not applied to a line headed by its entry.
UniProt P28074: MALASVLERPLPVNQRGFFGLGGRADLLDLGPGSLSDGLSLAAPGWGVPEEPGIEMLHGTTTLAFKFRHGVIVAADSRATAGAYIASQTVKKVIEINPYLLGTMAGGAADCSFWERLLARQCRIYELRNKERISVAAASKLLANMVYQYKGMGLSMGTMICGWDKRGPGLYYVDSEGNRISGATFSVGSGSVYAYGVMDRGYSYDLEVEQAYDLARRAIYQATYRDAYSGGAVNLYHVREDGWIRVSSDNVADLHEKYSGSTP

In PMC4806471, “Oral proteasome inhibitor with strong preclinical efficacy in myeloma models” (BMC Cancer, 2016):

Target: T1, 20S proteasome CT-L, β5 (Homo sapiens, UniProt P28074)
T1 construct: endogenous in cells; host or cells: RPMI8226 (human multiple myeloma)
Test: In vitro 20S proteasome inhibition in RPMI8226 cell lysate, Suc-Leu-Leu-Val-Tyr-AMC substrate
Format: biochemical
Conditions: RPMI8226 cellular lysates, 1 h at 37 °C
Protocol: Pomalidomide was purchased from Tokyo Chemical Industry.
RPMI8226 cell lysate was used for the in vitro proteasome inhibition assay. Cells were washed with PBS and resuspended in 20 mM Tris–HCl, pH 7.5. Then, cells were lysed on ice by dounce homogenization and the supernatants were collected by centrifugation. The assay was conducted in 96-well plates by incubating 2 μg of lysates with serial dilutions of a test compound and 20 μM of substrate at 37 °C for 1 h. After incubation, production of hydrolyzed AMC groups was measured using a FlexStation II Fluorometer (Molecular Devices) or using a Spectra MAX Gemini Fluorometer (Molecular Devices) with an excitation filter of 380 nm and an emission filter of 460 nm.

CC(C)C[C@H](NC(=O)CNC(=O)c1cc(Cl)ccc1Cl)B(O)O [Ixazomib] showed an IC50 of 3 to 5 nM.
